Bioassay records as filed in PubChem.
miR-21 reporter: raises the signal of a miR-21 reporter | HeLa miR-21 FLuc reporter, luciferase, 48 h | Potency, µM (highest dose often 38.3 µM), inactives show at the highest dose reporter change, positive = more light | 340,000 tested, under 10 active | AID 2288; active = well fitted rising curve with a large enough effect; inconclusive = small, poorly fitted or top-dose-only effect; inactive = no such curve, though single readings can be large or run the other way;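 note: % of control where 0% means no effect; miR-21 action dims this reporter so a rising signal means less miR-21 action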
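Using DMEM plus 10% FBS, HeLa miR-21-FLuc cells are incubated with test compounds (final up to about 40uM) for 48 hours; firefly luciferase signal is then imaged following reagent-mediated lysis.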
Sfp inh: qHTS Assay for Inhibitors of Bacillus subtilis Sfp phosphopantetheinyl transferase (PPTase); 4'-phosphopantetheinyl transferase ffp (Bacillus subtilis), Q9F4F7; Biochemical Sfp PPTase activity, qHTS; Potency, µM, for inactives: max response, negative = inhibition, most hits filed as inhibitors; hit rate 3.5% among 310,000; AID 1490, 2009; active = well fitted inhibition curve with a large enough effect; inconclusive = small, poorly fitted or top-dose-only effect, or another doubt; inactive = no such curve, though single readings can be large or run the other way;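 also: the enzyme is Sfp with the accession as filed and its product quenches rhodamine fluorescence; potency is read from the fitted curve at half-maximal effect; 0% = enzyme reaction without inhibitor and -100% = no enzyme wells; top concentration of the series not given in the record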
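Fluorescence-quenching assay: 15 nM Sfp-PPTase preincubated 15 min at room temperature with compound, then 5 uM rhodamine-CoA and 12.5 uM BHQ-2-labelled YbbR peptide added. Fluorescence (ex 525/em 598 nm) read at start and after 30 min; difference gives rate.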
KDM4E inh: inhibitors of human JMJD2E histone demethylase | B2RXH2 | Potency, µM (doses to about 57.1 µM), for the others: at the top dose activity change, negative = inhibition, usual class: inhibitors | hit rate 1.6% among 230,000 | AID 2147 | JMJD2E catalytic domain, FDH-coupled NADH fluorescence (FDH is formaldehyde dehydrogenase);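 further: potency means the concentration at half of the fitted maximal effect; 0% = wells with enzyme and -100% = buffer wells without enzyme; nearly all actives have a fitted effect of over 50% in size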
ALDH1A1 block: ALDH1A1 (human) enzyme inhibition; Potency, µM (series often up to 75.3 µM), inactives show top-dose activity, negative = inhibition, actives largely listed as inhibitors; Purified ALDH1A1, NADH fluorescence, propionaldehyde substrate; AID 1030; P00352; hit rate 7.3% among 220,000; active means well fitted inhibition curve with a large enough effect, not every such curve was filed as active; inconclusive means small, poorly fitted or top-dose-only effect, or another doubt; inactive means no such curve, though single readings can be large or run the other way;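 further: potency means the concentration at half of the fitted maximal effect; plate controls were no enzyme wells and a reference inhibitor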
Lamin A splicing: changes lamin A minigene splicing in HeLa cells. HeLa LMNA splicing GFP/RFP minigene ratio, 48 h. Potency, µM (doses to about 46.1 µM), for inactives: at the top dose ratio change, negative = inhibition, hits mostly inhibitors. hit rate 0.01% among 200,000; active means well fitted inhibition curve with a large enough effect in the signal ratio, with a control signal flat, not every such curve was filed as active; inconclusive means small, poorly fitted or top-dose-only effect, or effect the other way, or a change in a side signal; the % refers to the signal ratio; further: potency means the concentration at half of the fitted maximal effect; on the % scale 0 is the no-effect control and ±100 the full control effect
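Read-out is the ratio of GFP to DsRed2 object intensity, acquired by 488 nm laser-scanning cytometry on HeLa lamin A-EGFP minigene reporter cells. Compound incubation 48 hrs at 37 °C in Opti-MEM with 2% FBS; DMSO 0.5% final.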
G9a block: G9a (human) methyltransferase inhibition; G9a H3K9 monomethylation, AlphaScreen, 2 h; Potency, µM (doses to about 102 µM), for the others: top-dose activity, negative = inhibition, actives largely listed as inhibitors; AID 504332; Q96KQ7; hit rate 8.8% among 350,000; further: potency means the concentration at half of the fitted maximal effect; on the % scale 0 is the no-effect control and ±100 the full control effect; nearly all actives have a fitted effect of over 75% in size
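Readings reflect AlphaScreen signal from monomethyl-H3K9 antibody detection. HMT at 20 nM; substrate b-H3K9 500 nM; cofactor SAM 20 uM; 2 h RT reaction; compounds tested as titrations in qHTS with 15 min preincubation.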
* = called active by the depositor; u = inconclusive; x = not tested or not shown; ! = repeats disagree; [ ] = dose if it differs, or a comment. This is a sample that favours compounds with a hit; in the whole collection about 13% have one here. Unless noted, the call rests on the fitted dose curve; in most records, active means well fitted curve in the direction sought with a large enough effect; inconclusive means small, poorly fitted or top-dose-only effect, or another doubt; inactive means no such curve, though single readings can be large; an effect the other way counts as inactive or inconclusive.

smiles	G9a block	KDM4E inh	ALDH1A1 block	miR-21 reporter	Lamin A splicing	Sfp inh
COc1ccc(Cn2c(C(=O)O)c(CNCc3ccccc3F)c3ccc(OC)cc32)cc1	-1.6%[59 µM]	x	x	17.3%	x	x
COc1ccc(C2=NO[C@@H]3C(=O)N(c4ccc(C)cc4C)C(=O)[C@H]23)cc1OC	12.6µM*	4.4%	22.4µM*	-3.3%	4.3%	u
COc1ccc(-c2cn(-c3ccc(C)cc3C)c(=O)[nH]2)cc1OC	11.2µM*	u	u	8.9%	8.9%[9.22 µM]	-14.4%
COc1ccc(C2=NO[C@@H]3C(=O)N(c4cccc(C)c4C)C(=O)[C@H]23)cc1OC	23.4%[59 µM]	4.9%	4.8%	-5.2%	-0.4%	18.3%
Cc1ccc(NC(=O)CSc2nc3ccccc3nc2Cc2ccccc2)c(C)c1	-1.7%[59 µM]	x	x	13.2%	u	x
COc1ccc(C(OCCN2CCC[C@H](C(=O)O)C2)(c2ccc(OC)cc2)c2ccc(OC)cc2)cc1	x	x	x	x	x	-11.3%
CSc1nnc(CNS(=O)(=O)c2ccc(Br)cc2)n1C	13.9%	x	x	-1.6%	x	12.4%
Cc1ccc(S(=O)(=O)NCc2n[nH]c(=S)n2C)cc1	31.6µM*	-0.7%	5.7%	-2.4%	-4.0%	-9.9%

More structures follow.
smiles	G9a block	KDM4E inh	ALDH1A1 block	miR-21 reporter	Lamin A splicing	Sfp inh
COC(=O)CSc1nnc(CNS(=O)(=O)c2ccc(C)cc2)n1C	-28.8%	-3.4%	5.1%	-1.0%	5.9%	-1.1%
Cn1c(CNS(=O)(=O)c2ccc(Br)cc2)n[nH]c1=S	22.4µM*	-2.1%	-2.3%	-1.6%	2.1%	1.3%
COc1cccc(-c2nc(CCl)cs2)c1OC	22.4µM*	u	u	-30.4%	0.4%[46 µM]	1.4%
CCOc1ccc(-c2nc(CCl)cs2)cc1OC	44.7µM*	u	u	-52.3%	x	-0.6%
Cn1c(SCC(=O)NCCc2ccccc2)ncc(C(=O)Nc2ccc(F)cc2)c1=O	11.0%[0.501 µM]	x	x	x	x	x
O=C(CCNS(=O)(=O)c1ccc2c(c1)CCCC(=O)N2)Nc1cccc(Cl)c1	-1.6%[59 µM]	x	x	-0.1%	7.7%[46 µM]	x
COc1ccc(N(Cc2cccs2)C(=O)c2ccc(Br)o2)cc1	0.9%[59 µM]	x	x	-6.6%	29.9%[46 µM]	x
c1ccc(Cn2nnnc2CN2CCN(Cc3ccc4c(c3)OCO4)CC2)cc1	-9.0%	-0.2%	20µM*	-6.6%	-8.1%	11.2%

Next structures
smiles	G9a block	KDM4E inh	ALDH1A1 block	miR-21 reporter	Lamin A splicing	Sfp inh
COCCn1nnnc1C(c1ccc(C)cc1)N1CCN(Cc2ccc3c(c2)OCO3)CC1 (stereo not drawn)	1.4%	3.1%	-4.9%	-7.7%	5.3%	16.7%
Cc1ccc(C(c2nnnn2Cc2cccs2)N2CCN(Cc3ccc4c(c3)OCO4)CC2)cc1 (stereo not drawn)	u	-4.7%	10µM*	8.0%	5.0%	5.0%
Fc1ccccc1C(c1nnnn1Cc1ccc2c(c1)OCO2)N1CCN(Cc2ccco2)CC1 (stereo not drawn)	50.1µM*	-2.3%	-4.6%	-11.4%	9.3%	1.8%
SC(COCc1ccccc1)CN1CCN(Cc2ccc3c(c2)OCO3)CC1 (stereo not drawn)	22.4µM*	0.4%	0.8%	-3.7%	2.7%	u
Cc1nc2nc(C(F)(F)F)[nH]n2c(=O)c1Cc1ccccc1	6.5%[59 µM]	x	x	0.3%	12.9%[46 µM]	x
CC(C)C[C@H](NC(=O)[C@H](Cc1c[nH]c2ccccc12)NC(=O)[C@H](CCCCN)NC(=O)CNC(=O)[C@H](CC(C)C)NC(=O)[C@H](CO)NC(=O)[C@@H](N)Cc1cnc[nH]1)C(=O)NCC(=O)N[C@@H](Cc1cnc[nH]1)C(=O)N1CCC[C@H]1C(=O)N[C@@H](CC(=O)O)C(=O)N[C@@H](CCCCN)C(=O)N[C@@H](Cc1ccccc1)C(=O)O	x	x	x	x	x	-10.7%
CC(C)CN(CC(C)C)C(=O)C1CCCN(S(=O)(=O)c2ccc3c(c2)oc(=O)n3C)C1 (stereo not drawn)	8.1%[59 µM]	x	x	-1.0%	x	x
CCCCC1=CC2=C(c3ccco3)C(=O)C(C)(OC(=O)c3ccc(OC)cc3)C(=O)C2=CN1Cc1ccc(OC)cc1 (stereo not drawn)	-39.7%[59 µM]	-0.5%[11.4 µM]	-11.6%[13.5 µM]	2.7%	-15.2%[9.22 µM]	70.8µM*!

The list goes on.
smiles	G9a block	KDM4E inh	ALDH1A1 block	miR-21 reporter	Lamin A splicing	Sfp inh
CCCCC1=CC2=C(c3ccco3)C(=O)C(C)(OC(=O)c3ccc(OC)cc3)C(=O)C2=CN1Cc1ccco1 (stereo not drawn)	-40.9%[59 µM]	12.6µM*!	u	4.6%	-0.8%[9.22 µM]	44.7µM*
CCCCC1=CC2=C(c3ccco3)C(=O)C(C)(OC(=O)c3ccc(OC)cc3)C(=O)C2=CN1CCCCO (stereo not drawn)	-2.1%[12.7 µM]	-4.1%[11.4 µM]	u	3.2%	u	u
CCCCC1=CC2=C(c3ccco3)C(=O)C(C)(OC(=O)c3ccc(OC)cc3)C(=O)C2=CN1CC(C)C (stereo not drawn)	u	u	u	4.6%	u	3.55µM*!
O=C(Nc1ccc(S(=O)(=O)Nc2ncccn2)cc1)c1ccccc1NS(=O)(=O)c1ccc(Cl)cc1	2.3%[12.7 µM]	u	x	-1.8%	x	23.3%
COc1ccc(NS(=O)(=O)c2ccc(N3CCCC3)c(NC(=S)Nc3cccc(S(=O)(=O)N(C)C)c3)c2)cc1	1.58µM*	-3.7%	3.16µM*	-6.0%	u	3.98µM*
CCCCC[C@H](O)/C=C/C=C\CCCCCCCCCC(=O)O	x	9.2%	12.2%	x	x	-11.5%
CCOC(=O)C(=O)C1=C(N2CCOCC2)/C(=C\c2ccc(F)cc2)CC1	u	-15.3%	12.6µM*	-19.7%	1.3%	-7.9%
COC(=O)[C@H](Cc1ccccc1)NC(=O)O[C@@H]1C(=O)c2cc(OC)ccc2O[C@H]1c1cccc(OC)c1	x	u	20µM*	x	x	-21.8%

(continued)
smiles	G9a block	KDM4E inh	ALDH1A1 block	miR-21 reporter	Lamin A splicing	Sfp inh
COc1cccc([C@@H]2Oc3ccc(Br)cc3C(=O)[C@H]2O)c1	x	-8.1%	2.4%	x	x	4.7%
COc1cccc([C@@H]2Oc3ccc(OC)cc3C(=O)[C@H]2O)c1	79.4µM*	u	0.5%	-46.4%	u	-9.7%
S=c1nccc(-c2ccc(Cl)cc2)[nH]1	-31.1%	-21.0%	-5.9%	-21.7%	2.7%[46 µM]	-10.6%
S=c1[nH]c(-c2ccc(Cl)cc2)cs1	35.5µM*	-18.2%	3.16µM*	-32.2%	13.6%[46 µM]	11.2µM*
Cc1ccc(-c2csc(=S)[nH]2)cc1	12.6µM*	-4.9%	14.1µM*	-44.0%	x	35.5µM*
Cc1ccc(-c2ccc(C(=O)O)[nH]2)cc1	-7.1%[59 µM]	u	-9.6%	-30.4%	u	-1.9%
C/C(=N\NC(=O)c1ccc([N+](=O)[O-])c(C)c1)c1ccccc1Cl	16.7%	5.9%	1.2%	-56.2%	-6.4%	6.1%
C/C(=N/NC(N)=S)c1ccccc1[N+](=O)[O-]	u	-0.7%	-2.2%	5.8%	1.9%	22.4µM*
NC(=S)N/N=C/c1ccccc1[N+](=O)[O-]	x	-28.5%	22.4µM*	0.1%	x	4.47µM*
